The text below walks through data of patent US20220340638A1 (published 2022).

The assay deals with T1, MART-1 peptide on HLA-A*02:01 (human).
T1 peptide: AAGIGILTV
The assay can be described thus: multimer staining. The method, then:
The stimulated cells in step I-4 were resuspended and counted. The cells used for flow cell sorting was taken out at 2×10⁵/tube, and then 1 ml of PBS was added therein for resuspension. After centrifugation at 4° C. at 500 g for 5 min, the supernatant was carefully discarded and 200 μl of PBS was added for resuspension. The tetramer (10 μl/ml) prepared in step 1 was added to the tube, mixed homogeneously and carried out a reaction at 4° C. for 30 min. After the reaction time is over, 1 ml of PBS was added for resuspension and centrifugation was carried out at 4° C. at 500 g for 5 min. The supernatant was carefully discarded, and 200 μl of PBS was added for resuspension, and it was placed on ice for flow cytometry detection. After flow cytometry loading, positive population was selected to sort single cells.

B1: MART-1 (27-35) epitope-specific T cell receptor, clone #4 (TCR, V domains shown)
Valpha: QKEVEQNSGPLSVPEGAIASLNCTYSDRGSQSFFWYRQYSGKSPELIMFIYSNGDKEDGRFTAQLNKASQYVSLLIRDSQPSDSATYLCAVNTPMEYGNKLVFGAGTILRVKS
Vbeta: GAGVSQSPRYKVAKRGQDVALRCDPISGHVSLFWYQQALGQGPEFLTYFQNEAQLDKSGLPSDRFFAERPEGSVSTLKIQRTQQEDSAVYLCASSYVVGLTYNEQFFGPGTRLTVL
For the molecule B1, the binding result is recorded as “recognises”.
